Amino acid sequences for entries named in this document (tags omitted). A change or cut given only in a name is not applied to a line headed by its entry.
UniProt P21728: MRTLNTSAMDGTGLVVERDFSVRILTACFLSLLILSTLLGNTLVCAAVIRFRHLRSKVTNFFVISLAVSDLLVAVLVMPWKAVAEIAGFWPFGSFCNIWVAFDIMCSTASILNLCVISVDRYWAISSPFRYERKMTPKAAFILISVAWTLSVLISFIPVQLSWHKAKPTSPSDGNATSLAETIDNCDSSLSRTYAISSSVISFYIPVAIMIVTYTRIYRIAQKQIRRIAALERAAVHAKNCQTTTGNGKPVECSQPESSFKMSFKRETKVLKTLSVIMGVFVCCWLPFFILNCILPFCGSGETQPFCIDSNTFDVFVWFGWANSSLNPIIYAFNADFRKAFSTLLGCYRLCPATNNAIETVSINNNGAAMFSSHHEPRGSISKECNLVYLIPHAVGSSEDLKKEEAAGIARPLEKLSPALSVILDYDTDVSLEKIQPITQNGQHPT

In paper PMC6747318, “Mutual Enhancement of Opioid and Adrenergic Receptors by Combinations of Opioids and Adrenergic Ligands Is Reflected in Molecular Complementarity of Ligands: Drug Development Possibilities” (International Journal of Molecular Sciences, 2019):

What was measured:
[1] = molecular target: T1, dopamine D1 receptor (D1DR) 89–98 (Homo sapiens, UniProt P21728); assay: UV spectroscopy binding to receptor peptide D1DR 89–98
T1 construct: D1DR 89–98

[2] = molecular target: T2, dopamine D1 receptor (D1DR) 170–188 (Homo sapiens, UniProt P21728); assay: UV spectroscopy binding to receptor peptide D1DR 170–188
T2 construct: D1DR 170–188

Compound: CC(N)Cc1ccccc1 (centres unmarked) [Amphetamine]
- Kd [1]: 530 µM
- Kd [2]: 230 µM
